The test system of the test is CWR22Rv1 xenografts. The test is described as follows: Test of EZH2 inhibitors in CWR22Rv1 xenograft mouse model. It is filed as in vivo, castrated nude mice. Here is the method:
FIG. 1F is a growth curve of xenograft tumors in castrated nude mice injected with CWR22Rv1 cells receiving vehicle (Veh) or GSK126, at the indicated doses.
Test of EZH2 Inhibitors in Xenograft Mouse Model. Male nude mice (Taconic) were castrated after 3 days of accommodation. CWR22Rv1 xenografts were established in the flanks of mice by injecting ˜2 million cells in 50% Matrigel (BD Biosciences). […] Tumors were measured 3 times every week and harvested after 3 weeks. Frozen samples were subjected to RT-qPCR and immunoblotting to study the expression of selected genes. All animal protocols were approved by the Beth Israel Deaconess Institutional Animal Care and Use Committee, and the experiments were performed in accordance with institutional and national guidelines.

For `CCN(c1cc(-c2ccc(CN3CCOCC3)cc2)cc(C(=O)NCc2c(C)cc(C)[nH]c2=O)c1C)C1CCOCC1` [EPZ-6438], the xenograft tumor growth entry (CWR22Rv1 subcutaneous xenografts, castrated mice, daily injection, 21 days of treatment) was “significantly retarded tumor growth”. In addition, the “mRNA and protein levels of EZH2-activated genes in xenograft tumor tissues” value (CWR22Rv1 xenografts) is on record as “consistent decrease”.

Source of the values: US20220401452A1, “USE OF INHIBITORS OF ENHANCER OF ZESTE HOMOLOG 2” (The Board Of Regents of The University of Texas System, priority 2019, published 2022).
